Experimental data published in patent US20230159442A1 (published 2023).

Assay: Saturated aqueous solubility determination

creatine amide ethyl ester
Solubility (deionized water, 25° C., 1.5 hour): >600 mg/mL
Ratio (relative to CM) (solubility relative to creatine monohydrate): >29
